These are literature values, as cited in patent US5866346A (priority 1997, dated 1999).

The chains behind the UniProt entries cited, without tags or fusion partners. Where a name states a change or a piece, a line headed by the entry shows the natural chain unless it says otherwise.
UniProt P33534: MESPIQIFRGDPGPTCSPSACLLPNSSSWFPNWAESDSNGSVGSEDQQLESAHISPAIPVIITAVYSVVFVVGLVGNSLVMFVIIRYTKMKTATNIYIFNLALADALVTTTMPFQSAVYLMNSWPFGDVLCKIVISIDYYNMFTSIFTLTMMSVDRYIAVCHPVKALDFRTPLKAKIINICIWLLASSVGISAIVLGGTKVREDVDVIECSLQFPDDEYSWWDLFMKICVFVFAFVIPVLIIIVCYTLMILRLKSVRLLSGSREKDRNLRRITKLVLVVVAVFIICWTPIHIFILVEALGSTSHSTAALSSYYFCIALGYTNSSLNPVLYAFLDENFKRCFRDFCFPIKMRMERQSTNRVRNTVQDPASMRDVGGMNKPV

This series addresses kappa opioid receptor (KOR) (Mus musculus, UniProt P33534). To be noted: read-out: KOR (Ki) Mouse (35); cited from earlier work.

As for `CC[C@H](C)[C@H](NC(=O)[C@H](CCCNC(=N)N)NC(=O)[C@H](CCCNC(=N)N)NC(=O)[C@H](CC(C)C)NC(=O)[C@H](Cc1ccccc1)NC(=O)CNC(=O)CNC(=O)[C@@H](N)Cc1ccc(O)cc1)C(=O)N[C@@H](CCCNC(=N)N)C(=O)N1CCC[C@H]1C(=O)N[C@@H](CCCCN)C(=O)N[C@@H](CC(C)C)C(=O)N[C@@H](CCCCN)C(=O)N[C@@H](Cc1c[nH]c2ccccc12)C(=O)N[C@@H](CC(=O)O)C(=O)N[C@@H](CC(N)=O)C(=O)N[C@@H](CCC(N)=O)C(=O)O` [dyn A, dynorphin A], the inhibition constant Ki was 400 pM.

In general, Ki refers to a dissociation constant, usually derived from enzyme kinetics or from competition with a known ligand.
